These results are taken from PMC9243104 (Nature Communications, 2022).

Protein sequences, listed by entry. Tags and fused reporters are not part of them.
UniProt P27694, whole entry, chain 1 of 3: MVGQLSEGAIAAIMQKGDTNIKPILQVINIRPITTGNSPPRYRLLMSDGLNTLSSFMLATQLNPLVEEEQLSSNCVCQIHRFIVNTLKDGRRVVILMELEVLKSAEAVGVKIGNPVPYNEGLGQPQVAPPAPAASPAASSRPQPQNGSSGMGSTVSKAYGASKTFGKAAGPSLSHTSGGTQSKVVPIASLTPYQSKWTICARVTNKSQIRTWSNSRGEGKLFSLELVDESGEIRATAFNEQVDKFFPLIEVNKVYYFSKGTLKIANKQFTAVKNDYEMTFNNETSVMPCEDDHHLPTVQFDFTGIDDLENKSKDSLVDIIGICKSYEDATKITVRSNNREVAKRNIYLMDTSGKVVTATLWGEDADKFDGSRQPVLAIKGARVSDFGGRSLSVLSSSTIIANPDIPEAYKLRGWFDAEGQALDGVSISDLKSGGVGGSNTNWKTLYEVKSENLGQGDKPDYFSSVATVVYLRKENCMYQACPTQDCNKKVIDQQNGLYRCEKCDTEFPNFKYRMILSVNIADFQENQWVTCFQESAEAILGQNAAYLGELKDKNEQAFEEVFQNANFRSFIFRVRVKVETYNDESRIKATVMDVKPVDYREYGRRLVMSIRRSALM
Human heterotrimeric replication protein A (RPA1, RPA2, RPA3), UniProt P15927, whole entry, chain 2 of 3: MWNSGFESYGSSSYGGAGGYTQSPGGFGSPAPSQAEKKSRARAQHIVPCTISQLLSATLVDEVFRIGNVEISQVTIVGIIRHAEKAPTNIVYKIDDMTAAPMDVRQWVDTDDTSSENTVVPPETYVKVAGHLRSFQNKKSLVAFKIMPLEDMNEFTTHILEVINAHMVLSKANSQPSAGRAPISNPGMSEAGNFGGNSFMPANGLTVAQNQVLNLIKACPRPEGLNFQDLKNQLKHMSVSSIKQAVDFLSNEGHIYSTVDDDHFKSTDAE
Human heterotrimeric replication protein A (RPA1, RPA2, RPA3), UniProt P35244, whole entry, chain 3 of 3: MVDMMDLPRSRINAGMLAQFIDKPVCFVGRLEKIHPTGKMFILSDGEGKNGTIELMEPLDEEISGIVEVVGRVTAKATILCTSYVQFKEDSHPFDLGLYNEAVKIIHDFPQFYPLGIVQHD

The target of this assay is T1, Human heterotrimeric replication protein A (RPA1, RPA2, RPA3) (human, UniProt P27694 1-616; P15927 1-270; P35244 1-121).
T1 construct: human RPA1 (RPA70) subunit of the heterotrimer; human RPA2 (RPA32) subunit of the heterotrimer; human RPA3 (RPA14) subunit of the heterotrimer; also called hRPA1-3; RPA1-3; source: E. coli, purified (Affi-gel Blue, hydroxylapatite, Mono-Q); copies: + +
Briefly: ELISA; 1 µg of 1st protein coated on a 96-well plate (1 h, 25 °C), blocked with 5% milk in PBS; 2nd protein added at increasing concentrations in blocking buffer (1 h, 25 °C); detected with anti-WASp antibody, OD450; RPA coated alone or after pre-incubation with 1 nM ssDNA. Conditions: both partners purified. In general terms: ELISA stands for enzyme-linked immunosorbent assay.

B1: Recombinant human WT*WASp (Wiskott-Aldrich syndrome protein) (natural protein, UniProt P42768 1-502, looked up)
chain: MSGGPMGGRPGGRGAPAVQQNIPSTLLQDHENQRLFEMLGRKCLTLATAVVQLYLALPPGAEHWTKEHCGAVCFVKDNPQKSYFIRLYGLQAGRLLWEQELYSQLVYSTPTPFFHTFAGDDCQAGLNFADEDEAQAFRALVQEKIQKRNQRQSGDRRQLPPPPTPANEERRGGLPPLPLHPGGDQGGPPVGPLSLGLATVDIQNPDITSSRYRGLPAPGPSPADKKRSGKKKISKADIGAPSGFKHVSHVGWDPQNGFDVNNLDPDLRSLFSRAGISEAQLTDAETSKLIYDFIEDQGGLEAVRQEMRRQEPLPPPPPPSRGGNQLPRPPIVGGNKGRSGPLPPVPLGIAPPPPTPRGPPPPGRGGPPPPPPPATGRSGPLPPPPPGAGGPPMPPPPPPPPPPPSSGNGPAPPPLPPALVPAGGLAPGGGRGALLDQIRQGIQLNKTPGAPESSALQPPPQSSEGLVGALMHVMQKRSRAIHSSDEGEDQAGDEDEDDEWDD
notes: human WASp, codon-optimized WAS gene cloned into the NdeI-HindIII site of pET30a; also called wild-type WASp; native purified human WASp; source: E. coli DE3 (pET30a-WT*WASp), purified using Flag-tag; commercially produced by GenScript
On to B1, for which the binding result was “binds”.
